# Reported logP (octanol/water) values for industrial, environmental and drug-like chemicals

Values as listed in the OPERA 2.9 repository of K. Mansouri.

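The OPERA project collected these measurements from public sources as training and test data for property models. A listed value is a point estimate from one report or more. Method, purity and exact conditions of the single measurements are not given. The measured form (salt, isomer or mixture) is not always the one drawn. Some upstream entries may be estimates or bounds without being marked so.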

logP is the log10 of the octanol-water partition coefficient; higher is more lipophilic. "–" marks a cell with nothing listed here.

| compound | name | log Kow |
|---|---|---|
| CC(=O)OCC[N+](C)(C)C.[Br-] | Ethanaminium, 2-(acetyloxy)-N,N,N-trimethyl-, bromide (1:1) | -3.61 |
| O=C1CCc2ccccc2O1 | 3,4-Dihydrocoumarin | 1.82 |
| CCCCCCCCCCCN | Undecylamine | 4.63 |
| COC1CCC=CO1 (stereo not drawn) | 3,4-Dihydro-2-methoxy-2H-pyran | 1.313 |
| OCC#CCO | 2-Butyne-1,4-diol | -0.73 |
| OCC(Br)=C(Br)CO | 2,3-Dibromo-2-butene-1,4-diol | 0.31 |
| CC=CC(=O)N(CC)c1ccccc1C | Crotamiton | 2.9 |
| Cc1cc(/N=N/c2ccc(Nc3nc(N)nc(Cl)n3)c3c(S(=O)(=O)[O-])cccc23)c(C)cc1/N=N/c1cc(S(=O)(=O)[O-])ccc1S(=O)(=O)[O-].[Na+].[Na+].[Na+] | C.I. Reactive Orange 35 | -3.46 |
| CCCCCCCCCCCCCCCCCCO[Si](C)(C)C | Silane, trimethyl(octadecyloxy)- | 4.1 |
| CCC(C)(C)c1cc(O)c(C(C)(C)CC)cc1O | 2,5-Bis(2-methylbutan-2-yl)benzene-1,4-diol | 3.3 |
| CCC(C)CCCC(C)(C)O (stereo not drawn) | 2,6-Dimethyloctan-2-ol | 3.2 |
| O=C(Nc1nnc[nH]1)c1ccccc1O | 2-Hydroxy-N-(4H-1,2,4-triazol-3-yl)benzamide | 1.41 |
| CCCC(O)CO (stereo not drawn) | – | 0.06 |
| O=C1[C@H](CC[C@H](O)c2ccc(F)cc2)[C@@H](c2ccc(O)cc2)N1c1ccc(F)cc1 | Ezetimibe | 4.5 |
| Nc1cc(Cl)ccc1Oc1ccc(Cl)cc1Cl | 5-Chloro-2-(2,4-dichlorophenoxy)aniline | 3.47 |
| CN1CCC(OC(c2ccccc2)c2ccccc2)CC1 | Diphenylpyraline | 3.7 |
| CCC(=O)OCC[N+](C)(C)C.[I-] | – | -2.96 |
| COc1ccc(CCC(C)=O)cc1 | 4-(4-Methoxyphenyl)-2-butanone | 2 |
| CCCCCCCOC(=O)CCC(=O)OCCCCCCC | Diheptyl succinate | 5.1 |
| C=CC(=O)OCCCCOC(=O)Oc1ccc(C(=O)Oc2ccc(OC(=O)c3ccc(OC(=O)OCCCCOC(=O)C=C)cc3)c(C)c2)cc1 | – | 5.8 |
| NC(=O)c1ccc[n+]([C@@H]2O[C@H](COP(=O)([O-])OP(=O)(O)OC[C@H]3O[C@@H](n4cnc5c(N)ncnc54)[C@H](O)[C@@H]3O)[C@@H](O)[C@H]2O)c1 | Nadide | -4 |
| CCCCS(=O)(=O)N[C@@H](Cc1ccc(OCCCCC2CCNCC2)cc1)C(=O)O | Tirofiban | 1.4 |
| CC(=O)OCC(C)(C)COC(C)=O | Neopentyl glycol diacetate | 1.9 |
| Cc1ccc(/N=N/c2c(O)c(C(=O)[O-])cc3ccccc23)c(S(=O)(=O)[O-])c1.[Na+].[Na+] | C.I. Pigment Red 57 | -0.11 |
| CCCCCOC(=O)c1ccccc1O | Pentyl 2-hydroxybenzoate | 4.535 |
| O=C(c1ccccc1)C1(O)CCCCC1 | (1-Hydroxycyclohexyl)(phenyl)methanone | 2.81 |
| Nc1ccc2c(S(=O)(=O)O)cc(S(=O)(=O)O)cc2c1 | 1,3-Naphthalenedisulfonic acid, 6-amino- | -1.6 |
| C[C@H](CCC(=O)O)[C@H]1CC[C@H]2[C@@H]3C(=O)C[C@@H]4C[C@H](O)CC[C@]4(C)[C@H]3CC[C@]12C | 3alpha-Hydroxy-7-oxo-5beta-cholanoic acid | 3.48 |
| CC1(C)[C@H]2CC[C@]3(C2)[C@H]1C(=O)CCC3(C)C (relative stereo) | – | 4.905 |
| CC/C(=C\CC1CC=C(C)C1(C)C)CO (stereo partly drawn) | – | 4.3 |
| CC(CCO)CC(C)(C)C (stereo not drawn) | 3,5,5-Trimethyl-1-hexanol | 3.56 |
| O=C1CC[C@H](N2C(=O)c3ccccc3C2=O)C(=O)O1 | – | 0.25 |
| Cc1nc[nH]c1CN1CCc2c(c3ccccc3n2C)C1=O | Alosetron | 2 |
| O=c1[nH]c2[nH]cnc(=O)c2[nH]1 | 1H-Purine-6,8-dione, 7,9-dihydro- | 0.246 |
| CC(=O)N(CCN(C(C)=O)C(C)=O)C(C)=O | Tetraacetylethylenediamine | -0.09 |
| CC1=C(C(=O)O)N2C(=O)[C@@H](NC(=O)[C@H](N)c3ccc(O)cc3)[C@H]2SC1 | Cefadroxil | -2.06 |
| COCCCN1C(=O)c2ccc3c(=O)n4c5ccc(C)cc5nc4c4ccc(c2c34)C1=O | – | 4.7 |
| CC(=O)N1CCCCCC1=O | 2H-Azepin-2-one, 1-acetylhexahydro- | 0.95 |
| C#CC1(OC(C)=O)CCCCC1 | Cyclohexanol, 1-ethynyl-, 1-acetate | 2.8 |
| CCOC(C)OCCc1ccccc1 (stereo not drawn) | [2-(1-Ethoxyethoxy)ethyl]benzene | 3.5 |
| CCOC(=O)n1ccn(C)c1=S | Carbimazole | 0.4 |
| CNC(=O)c1cc(Oc2ccc(N)cc2)ccn1 | 4-(4-Aminophenoxy)-N-methylpyridine-2-carboxamide | 0.9 |
| FC(F)(F)OC1(Cl)OC(F)(F)OC1(F)Cl (stereo not drawn) | – | 4.4 |
| CCOC(=O)N(c1ccccc1)c1ccccc1 | Ethyl diphenylcarbamate | 3.33 |

The last 7 entries again:

| compound | name | log Kow |
|---|---|---|
| CC(=O)N1CCCCCC1=O | 2H-Azepin-2-one, 1-acetylhexahydro- | 0.95 |
| C#CC1(OC(C)=O)CCCCC1 | Cyclohexanol, 1-ethynyl-, 1-acetate | 2.8 |
| CCOC(C)OCCc1ccccc1 (stereo not drawn) | [2-(1-Ethoxyethoxy)ethyl]benzene | 3.5 |
| CCOC(=O)n1ccn(C)c1=S | Carbimazole | 0.4 |
| CNC(=O)c1cc(Oc2ccc(N)cc2)ccn1 | 4-(4-Aminophenoxy)-N-methylpyridine-2-carboxamide | 0.9 |
| FC(F)(F)OC1(Cl)OC(F)(F)OC1(F)Cl (stereo not drawn) | – | 4.4 |
| CCOC(=O)N(c1ccccc1)c1ccccc1 | Ethyl diphenylcarbamate | 3.33 |